Literature values, collected in PubChem BioAssay AID1811 (Shanghai Institute of Organic Chemistry, 2009).
The list shows a part of the results. Active and inactive are the calls of the source. Unless stated, no cut-off for active and inactive is given here.

Tested on: coagulation factor x
Experiment: PubChem AID 1811
Settings: PDB complex binding affinities from literature

CC(C)N1CCC(NC(=O)c2cc3ccccc3n2CC(=O)Nc2ccc(Cl)cc2)CC1
outcome: active
